Details: pH 10

## CC1[O][Ti-2]23([O]CC(=O)[O]2)([O]C1=O)[O]C(=O)C(C)[O]3 (stereo not shown)
  E1/2, V vs. RHE: −0.50 V vs. RHE

Source: US10014546B2 (priority 2012, dated 2018)
